Consider 1 substance from patent US20090048196A1, “Membrane receptor for retinol binding protein mediates cellular uptake of vitamin A, methods of use and compositions” (THE REGENTS OF THE UNIVERSITY OF CALIFORNIA, priority 2007, published 2009).

This test deals with bovine STRA6 (wild-type) (bovine) (UniProt Q0V8E7). As to the kind of experiment: cell-based or functional assay.

“His-tagged RBP (N-terminal 6xHis tag) (from UniProt P02753 19-201) (ligand)”: the cell-free 3H-retinol uptake by membranes, share of total radioactivity in 10 minutes turned out to be 17%; the retinol taken up in 1 hour relative to moles of RBP bound to the cell surface at steady state (3 nM 3H-retinol-RBP) came to 4.6 times; the retinol taken up in 1 hour relative to moles of RBP bound to the cell surface at steady state (0.44 µM retinol-RBP, HPLC assay) worked out at 14 times; the retinyl ester accumulation (HPLC assay of vitamin A uptake from holo-RBP) turned out to be 15 fold. For the same substance, the share of total radioactivity taken up from 3 nM 3H-retinol-RBP in 1 hour by COS-1 cells transfected with STRA6 and LRAT stood at 25%; the share of total radioactivity taken up from 3 nM 3H-retinol-RBP in 2 hours by COS-1 cells transfected with STRA6 and LRAT came to 50%.
